The results in this text go back to patent publication US20060094722A1 (Eisai Co., Ltd., priority 2002, published 2006).

Chains of the proteins cited; added tags and fusions are not shown. Lines headed by an entry give the natural chain unless they say otherwise; changes in a name come on top.
UniProt P22411: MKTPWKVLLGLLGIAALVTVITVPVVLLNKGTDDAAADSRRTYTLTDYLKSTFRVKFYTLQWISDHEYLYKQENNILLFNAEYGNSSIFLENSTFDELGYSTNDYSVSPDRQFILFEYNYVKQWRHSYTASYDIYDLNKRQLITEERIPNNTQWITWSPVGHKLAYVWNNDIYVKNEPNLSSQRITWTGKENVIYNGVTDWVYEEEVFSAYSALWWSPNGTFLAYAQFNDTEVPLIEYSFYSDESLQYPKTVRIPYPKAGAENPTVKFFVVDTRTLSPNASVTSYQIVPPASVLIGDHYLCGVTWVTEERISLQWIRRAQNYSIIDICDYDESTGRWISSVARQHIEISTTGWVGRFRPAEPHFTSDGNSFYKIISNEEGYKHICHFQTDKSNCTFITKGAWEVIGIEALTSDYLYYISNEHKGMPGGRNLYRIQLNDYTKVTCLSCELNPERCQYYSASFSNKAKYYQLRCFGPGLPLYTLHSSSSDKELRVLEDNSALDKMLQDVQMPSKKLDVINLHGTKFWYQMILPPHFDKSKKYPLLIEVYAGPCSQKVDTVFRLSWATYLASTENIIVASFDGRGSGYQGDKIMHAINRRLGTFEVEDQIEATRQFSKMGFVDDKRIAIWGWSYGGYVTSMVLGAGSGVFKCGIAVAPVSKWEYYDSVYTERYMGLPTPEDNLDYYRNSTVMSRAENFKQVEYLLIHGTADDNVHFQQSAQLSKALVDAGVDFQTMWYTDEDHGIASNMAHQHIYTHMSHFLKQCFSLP

Each structure is given as a SMILES string. Counter-ions that a name gives are not always drawn.

As a reminder, the IC50 is the midpoint of a concentration-inhibition curve. Lower therefore signals higher potency.

For one assay, the system named is Zucker fa/fa rats. The protocol:
Animals: Zucker fa/fa Rats, an Animal Model for TypeII Diabetes (Purchased from Charles River Japan, Inc.)
Each test compound was dissolved in distilled water at the doses shown in the Tables indicated below, and then administered orally at a volume of 5 mL/kg. The vehicle control group was orally administered distilled water at a volume of 5 mL/kg. […] The rats were tested for glucose tolerance on the first day of the administration series. In the test, distilled water and the test compounds were given 0.5 hour before glucose load.
For the glucose tolerance test, an unanesthetized rat was lightly cut at the caudal vein with a razor blade and bled immediately before the administration of a test compound or distilled water, and immediately before, and at 0.5, 1, 2, and 3 hours after glucose load. 250 μL of blood was collected from the rat using a heparinized capillary and transferred into a centrifugation tube. The supernatant obtained by centrifugation (at 10000 g at 4° C. for 2 minutes) was assayed for active GLP-1 level using Active GLP-1 ELISA kit (Linco). At the same time, 10 μL of blood was collected and mixed with 140 μL of a 0.6 M perchloric acid solution. […] The level of blood glucose alone was determined at the time of measurement 3 hours after glucose load.

The target in assay [1] is T1, DPPIV obtained from swine kidney (Sus scrofa, UniProt P22411).
T1 construct: DPPIV obtained from swine kidney; from tissue; host or cells: swine kidney
Kind of assay: Assay for the DPPIV-inhibiting activity. It is filed as biochemical. The settings on record: IC50 (nM), DPPIV 10 mU/mL; Gly-Pro-p-nitroanilide 0.33 mM; absorbance 405 nm. The protocol: DPPIV obtained from swine kidney was dissolved in a reaction buffer (50 mM Tris-HCl (pH 7.4)/0.1% BSA) at a fmal concentration of 10 mU/mL. A 110 μL aliquot of this enzyme solution was added to the reaction system, and then 15 μL of an agent was added. The reaction solution was incubated at room temperature for 20 minutes. 25 μL of a solution containing 2 mM Gly-Pro-p-nitroanilide was added to the reaction solution (at the final concentration of 0.33 mM) to start the enzyme reaction. The reaction time was 20 minutes. 25 μL of 1N phosphate solution was added to stop the reaction. […] The degree of inhibition to the enzyme reaction was determined, and IC50 was computed based on the absorbance.

Consider `CC(C)[C@H](N)C(=O)N1CCCC1` [Val-Pyr, valine pyrrolidide], for which, in the assay on Zucker fa/fa rats, the “level of active GLP-1 during the glucose tolerance test” value is listed as “elevated significantly”.
For `CC#CCn1c(N2CCNCC2)nc2nc(SCC(=O)OC)n(CCc3ccccc3)c(=O)c21` [Example 88, Methyl[7-(2-butynyl)-6-oxo-1-(2-phenylethyl)-8-(piperazin-1-yl)-6,7-dihydro-1H-purin-2-ylsulfanyl]acetate hydrochloride], the IC50 in assay [1] is 2.89 nM.
